Measurements: US20150018486A1, “Nanotherapeutic Colloidal Metal Compositions and Methods” (Cytlmmune Sciences, Inc., priority 2007, published 2015)

Tested on: rabbits
Test: IL-2 toxicity and antibody response in rabbits
Assay type: in vivo
Conditions: 1 mg IL-2 per 3 kg animal, 3 rabbits; for toxicity: every third day for a two-week period
Description: However, the toxic side effects of administration of IL-2 result in the death of a significant number of the patients. In contrast, if a vector composition comprising at least IL-2 and a colloidal metal is administered, little or no toxicity is observed and a strong immune response occurs in the recipient. The doses previously used for IL-2 therapy have been on the order of 21×10^6 units of IL-2 per 70 kg person per day (7×10^6 units of IL-2 per 70 kg person TID). One unit equals approximately 50 picograms, 2 units equals approximately 0.1 nanograms, so 20×10^6 units equals 1 milligram. In effect, the studies of the effects of the administration of agents described herein have included doses of more than 20 times higher than that previously given to humans. […] A “positive antibody response” as used herein is defined as a three to fourfold increase in specific antibody reactivity, as determined by direct ELISA, comparing the post-immunization bleed with the preimmunization bleed. A direct ELISA is done by binding IL-2 onto a microtiter plate, and determining the quantity of IgG bound to the IL-2 on the plate, by goat anti-rabbit IgG conjugated to alkaline phosphatase. Therefore, it is thought that the biological effects of the IL-2 remain.

Substance	toxicity	antibody response (direct ELISA) (every third day for two weeks)
IL-2 colloidal gold vector: same dose of IL-2 used in vector compositions comprising colloidal gold	no toxicity was observed	significant antibody response resulted in all three animals
IL-2: Interleukin-2	two of the animals died	–
